Results published in PubChem BioAssay AID2174 (The Scripps Research Institute Molecular Screening Center, 2009).
The list shows a part of the results, in another mix than the full data. Active and inactive are the calls of the source.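 Rule for the calls: active = inhibition above the mean of all tested compounds plus 3 SD, set per campaign (cut at about 14% in these data); inactive = the rest.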

By UniProt entry, the sequences of proteins in these tests, tags left out. Where a name states a change or a piece, a line headed by the entry shows the natural chain unless it says otherwise.
UniProt O75608: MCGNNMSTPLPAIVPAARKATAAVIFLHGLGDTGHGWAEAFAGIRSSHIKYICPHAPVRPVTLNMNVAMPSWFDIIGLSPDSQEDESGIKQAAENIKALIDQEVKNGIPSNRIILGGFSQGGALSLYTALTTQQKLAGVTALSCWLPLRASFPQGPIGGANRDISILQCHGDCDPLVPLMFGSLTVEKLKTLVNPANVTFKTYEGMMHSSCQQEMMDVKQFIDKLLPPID

These compounds were tested against Acyl-protein thioesterase 1 (Homo sapiens) (UniProt O75608) (assay: inhibition of human lysophospholipase 1 – biochemical, fluorescence polarization, FP-Rh probe ABPP, counter-screen for PME1 inhibitor project, primary screen (AID 2174;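 note: inhibitors block serine hydrolase probe labeling of LYPLA1 so polarization falls; 0% = enzyme with DMSO and 100% = wells lacking LYPLA1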)). Settings: recombinant LYPLA1, FP-Rh probe fluorescence polarization; at 5.9 µM; hits give high values.
For `Cc1cc(SC(NC(=O)c2ccccc2)C(Cl)(Cl)Cl)nc(C(C)C)n1` (stereo not drawn), the inhibition was inactive: -3.76%. `CCOC(=O)Nc1ccc([As](=O)(O)O)c(O)c1` was tested, and the inhibition was inactive: -0.4%. With `Cc1cc(SC(NC=O)C(Cl)(Cl)Cl)ncn1` (stereo not drawn) the inhibition was inactive: -0.02%. For `O=P(Nc1ccccn1)(c1cccc2ccccc12)c1cccc2ccccc12`, the inhibition was inactive: -2.08%. With `CCOC(=O)Nc1cccc([As](=O)(O)O)c1` the inhibition was inactive: 4.76%. For `O=C(Nc1ccncc1[N+](=O)[O-])c1ccc([N+](=O)[O-])cc1[N+](=O)[O-]`, the inhibition was inactive: 0.24%. With `O=C(COc1ccccc1)OC1CN2CCC1CC2` (stereo not drawn) the inhibition was inactive: -3.11%. With `COP1(=S)c2c(C)nn(CCC#N)c2N=C(c2ccc(F)cc2)N1C` (stereo not drawn) the inhibition was inactive: -4.98%. For `CCC(C)N(CC(C)C)C(=S)SC(NC(C)=O)C(Cl)(Cl)Cl` (stereo not drawn), the inhibition was inactive: 1.83%. For `CCOC(=O)c1ccc(NC(=O)C(C)(CCl)SC)cc1` (stereo not drawn), the inhibition was inactive: -2.51%. With `O=C(OC1CN2CCC1CC2)c1cccc([N+](=O)[O-])c1` (stereo not drawn) the inhibition was inactive: -0.34%. In the case of `COc1cc(I)ccc1[As](=O)(O)O`, the inhibition is reported as inactive: 0.57%. With `COc1ccc2nc(NP(=O)(c3ccccc3)c3ccccc3)sc2c1` the inhibition was inactive: -2.44%. For `Cc1cc(=O)[nH]c(N[N+](=O)[O-])n1`, the inhibition was inactive: 3.73%. In the case of `O=C(OC1CN2CCC1CC2)C12CC3CC(CC(C3)C1)C2` (stereo not drawn), the inhibition is reported as inactive: 1.89%. In the case of `Cc1c2c(nc3ccccc13)SC(C(Cl)Cl)C2` (stereo not drawn), the inhibition is reported as inactive: -4.2%. With `COc1ccc(N/C(=N/P(=O)(N2CCOCC2)N2CCOCC2)N2CCOCC2)cc1` the inhibition was inactive: 1.58%. For `Cc1ccc2nc3c(c(C)c2c1)CC(C(Cl)Cl)S3` (stereo not drawn), the inhibition was inactive: -0.31%. In the case of `Cc1ccc(OP(=O)(Nc2ccc([N+](=O)[O-])cn2)Oc2ccc(C)cc2)cc1`, the inhibition is reported as inactive: 2.85%. In the case of `COc1cc(C(=O)NCC2(N3CCOCC3)CCCCC2)ccc1OCC(C)C`, the inhibition is reported as inactive: -0.65%. With `O=[As](O)(c1ccc(O)cc1)c1ccccc1O` the inhibition was inactive: -1.4%. `C[As](=O)(O)c1cccc(C(=O)O)c1` was tested, and the inhibition was inactive: 4.54%. In the case of `O=[N+]([O-])c1cc([N+](=O)[O-])c(-c2ccn[nH]2)s1`, the inhibition is reported as inactive: -0.32%. With `CC(C)NC(=O)NP(=O)(Oc1ccccc1)Oc1ccccc1` the inhibition was inactive: 2.97%. For `CCN(CC)C(=S)SC(NC=O)C(Cl)(Cl)Cl` (stereo not drawn), the inhibition was inactive: -0.56%. `CC(C)c1ccc(OP(=O)(Nc2ccccn2)Oc2ccccc2F)cc1` (stereo not drawn) was tested, and the inhibition was inactive: 1.31%. `ClCCSc1nnc(-c2cccnc2)o1` was tested, and the inhibition was inactive: 3.59%. In the case of `O=C(O)COc1ccc([As](=O)(O)O)cc1[N+](=O)[O-]`, the inhibition is reported as inactive: 5.06%.
